# Test results: PubChem BioAssay AID1379 (National Center for Advancing Translational Sciences (NCATS), 2008)
# The entries are a selection whose mix differs from that of the whole data set. The source made the active and inactive calls. Calls follow the shape of the dose curve; as a rule, active = well fitted inhibition curve with a large enough effect; inconclusive = small, poorly fitted or top-dose-only effect; inactive = flat fitted curve, though single readings scatter.
# Molecular target: Luciferin 4-monooxygenase (Photuris pensylvanica) (UniProt Q27757)
# Assay: Counterscreen for Luciferase (Kinase-Glo TM) Inhibition; also: nearly all actives have a fitted effect of over 60% in size
# Conditions: ATP luminescence, 8 min; at 38.3 µM (top of the series) unless noted
# Protocol: NCGC Assay Overview: NIH Molecular Libraries Screening Centers Network [MLSCN] NIH Chemical Genomics Center [NCGC] MLSCN Grant: None Luciferase (Kinase-Glo, Promega Corporation) was assayed for its ability to generate light using ATP and luciferin as substrates. The ATP concentration in the assay (10 uM) was within the linear range of enzyme activity for the assay conditions used.
# NCGC Assay Protocol Summary: Four uL of substrate mix (final concentration, 50 mM imidazole pH 7.2, 50 mM KCl, 7 mM MgCl2, 10 uM ATP, 0.01% Tween 20, 0.05% BSA) was dispensed into white 1536 well plates. Twenty-three nL of compound was delivered by a pin tool and 2 uL of luciferase detection mix (Kinase-Glo, Promega)) was added. Following 8-minute incubation at ambient temperature, luminescence was measured by a ViewLux (Perkin Elmer) at 5 seconds exposure/plate.
# % is scaled to controls: 0 for no effect and ±100 for the full control effect.
row,SMILES,"activity change, negative = inhibition"
1,CN(C)CCOC(=O)C(O)(c1ccccc1)C1CCCCC1 (stereo not drawn),inactive: 3.49%
2,Cc1ccccc1NP(C)(=O)Nc1ccccc1C,inactive: -1.8%
3,CCN(CCCl)Cc1ccccc1C,inactive: -0.567%
4,NNC(NN)NN.n1nc(-c2nn[nH]n2)n[nH]1,inactive: -2.63% [at 7.66 µM]
5,CP(=O)(Nc1ccc2c(c1)OCCO2)Oc1ccccc1 (stereo not drawn),inactive: 4.43%
6,CCOP(C)(=S)SCC(=O)NC(C)(CC)C(=O)O (stereo not drawn),inactive: 3.05%
7,O=C(OCCN1CCN(CCOCc2ccccc2)CC1)C(O)(c1ccccc1)c1ccccc1,inactive: -0.348%
8,CP(=O)(Nc1ccccc1F)Oc1ccccc1 (stereo not drawn),inactive: -0.858%
9,CC(C)c1ccc(OP(C)(=O)Nc2ccc(SC(F)(F)F)cc2)cc1 (stereo not drawn),inactive: -3.9%
10,CP(=O)(Nc1ccccc1)Oc1ccc(F)cc1 (stereo not drawn),inactive: -1.02%
11,CCN(CC)CCCOC(=O)C(O)(c1ccccc1)C1CCCCC1 (stereo not drawn),inactive: 2.58%
12,CCOC(=O)c1ccc(NP(C)(=O)Oc2ccc(F)cc2)cc1 (stereo not drawn),inactive: 5.73%
13,COc1ccc(OP(C)(=O)Nc2ccc(SC(F)(F)F)cc2)cc1 (stereo not drawn),inactive: 2.69%
14,CP(=O)(Nc1ccc(Cl)cc1Cl)Oc1ccccc1 (stereo not drawn),inactive: -1.59%
15,CP(=O)(OCCOc1ccccc1)OCCOc1ccccc1,inactive: 1.43%
16,Cc1nc2ccc3ccccc3c2o1.O=[N+]([O-])c1cc([N+](=O)[O-])c(O)c([N+](=O)[O-])c1,inactive: 2.02%
17,COc1ccc(OP(C)(=O)Nc2ccccc2Br)cc1 (stereo not drawn),inactive: 0.888%
18,Cc1cc(C)cc(OP(C)(=O)Nc2cccc(C(F)(F)F)c2)c1 (stereo not drawn),inactive: -1.34%
19,COc1ccccc1OP(C)(=O)Nc1ccc(C)cc1C (stereo not drawn),inactive: -7.35%
20,CP(=O)(Nc1ccccn1)Oc1ccccc1 (stereo not drawn),inactive: 0.226%
21,CCc1ccc(OP(C)(=O)O)cc1,inactive: -2.17%
22,Cc1c(NP(C)(=O)Oc2ccc(C(C)C)cc2)c(=O)n(-c2ccccc2)n1C (stereo not drawn),inactive: 0.586%
23,O=[N+]([O-])c1cc([N+](=O)[O-])c(Nc2ccccn2)c([N+](=O)[O-])c1,inactive: -4.16%
24,COc1ccc(OP(C)(=O)Nc2ccccn2)cc1 (stereo not drawn),inactive: -0.577%
25,CN(C)CCOC(=O)C(O)(c1ccccc1)C1CCCC1 (stereo not drawn),inactive: -3.49%
26,CN(C)C(=O)c1c([N+](=O)[O-])cc([N+](=O)[O-])cc1[N+](=O)[O-],inactive: 1.03%
27,CC(C)(C)c1ccc(OP(C)(=O)O)cc1,inactive: -2.54%
28,CP(=O)(Nc1ccc(Cl)cc1)Oc1ccc(F)cc1 (stereo not drawn),inactive: -9.27%
